This assay has as its target CARM1 (PRMT4) (Homo sapiens, UniProt Q86X55). Nature of the assay: CARM1 Biochemical Assay (3H-SAM Flashplate, peptide substrate). The settings on record: read-out: Biochemical IC50 CARM1; 30 min preincubation, room temperature. An excerpt: S-adenosylmethionine (SAM), S-adenosylhomocysteine (SAH), bicine, Tween20, dimethylsulfoxide (DMSO), bovine skin gelatin (BSG), sodium butyrate and Tris(2-carboxyethyl)phosphine hydrochloride solution (TCEP) were purchased from Sigma-Aldrich at the highest level of purity possible. ^3H-SAM was purchase from American Radiolabeled Chemicals with a specific activity of 80 Ci/mmol. 384-well streptavidin Flashplates were purchased from PerkinElmer.
Peptide representative of human histone H3 residues 16-30 was synthesized with an N-terminal linker-affinity tag motif and a C-terminal amide cap by 21st Century Biochemicals. The peptide was purified by high-performance liquid chromatography (HPLC) to greater than 95% purity and confirmed by liquid chromatography mass spectrometry (LC-MS). The sequence was Biot-Ahx-PRKQLATKAARKSAP-amide and contained a monomethylated arginine at position 26 (SEQ ID NO.:14).
Human CARM1 (PRMT4) (NM_199141.1) transcript clone was amplified from an HEK 293 cDNA library, incorporating a flanking 5′ sequence encoding a FLAG tag (MDYKDDDDK) (SEQ ID NO.:6) fused directly to Ala 2 of CARM1 and 3′ sequence encoding a hexa His sequence (EGHHHHHH) (SEQ ID NO.:15) fused directly to Ser 608. The gene sequence encoding isoform1 containing a deletion of amino acids 539-561 was amplified subsequently and subcloned into pFastBacMam (Viva Biotech). […]

Chains of the proteins cited; added tags and fusions are not shown. Residues count along the entry.
UniProt Q86X55, 1-585 isoform 1: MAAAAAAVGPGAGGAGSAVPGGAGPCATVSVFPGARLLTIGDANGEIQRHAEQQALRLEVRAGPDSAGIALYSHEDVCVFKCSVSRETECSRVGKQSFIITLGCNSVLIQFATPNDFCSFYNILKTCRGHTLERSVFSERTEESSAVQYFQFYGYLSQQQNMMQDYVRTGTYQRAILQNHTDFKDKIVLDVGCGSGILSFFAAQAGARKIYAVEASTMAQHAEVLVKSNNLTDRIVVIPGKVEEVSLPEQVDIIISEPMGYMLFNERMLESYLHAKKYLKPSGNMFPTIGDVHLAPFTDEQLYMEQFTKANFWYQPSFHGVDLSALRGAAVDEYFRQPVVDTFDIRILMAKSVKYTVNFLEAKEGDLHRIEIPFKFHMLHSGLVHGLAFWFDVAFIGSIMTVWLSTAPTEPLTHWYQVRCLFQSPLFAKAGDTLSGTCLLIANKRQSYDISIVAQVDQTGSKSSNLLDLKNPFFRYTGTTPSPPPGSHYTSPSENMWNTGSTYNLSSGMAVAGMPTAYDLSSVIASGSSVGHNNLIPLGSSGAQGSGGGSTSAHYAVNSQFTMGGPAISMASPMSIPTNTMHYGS

Bounds are passed on as bounds.

For two compounds, IC50 results are on record in patent US9630961B2, “Arginine methyltransferase inhibitors and uses thereof” (Epizyme, Inc., priority 2013, dated 2017).

Broadly, the IC50 is the concentration that inhibits the measured activity by half.

With `CNCCN(C)Cc1c[nH]nc1-c1csc2ccccc12`, the IC50 is 0.101 to 1 µM.
Next, `CNCCN(C)Cc1c[nH]nc1-c1cncnc1`: more than 10 µM.
